The values below come from ChEMBL document CHEMBL4364305, “Medicinal leech antimicrobial peptides lacking toxicity represent a promising alternative strategy to combat antibiotic-resistant pathogens” (Eur J Med Chem, 2019).

The structures appear in SMILES notation. In brackets after ≈: the same amount, converted by molar mass.

For assay [1], the system named is Escherichia coli. The assay is described as follows: Antibacterial activity against Escherichia coli MG1655 assessed as reduction in bacterial cell growth incubated for 24 hrs by microtiter dilution method. The assay is classed as functional. As to conditions: MG1655, 24 h.
Assay [2] concerns Bacillus subtilis. The assay is described as follows: Antibacterial activity against Bacillus subtilis 168 HT assessed as reduction in bacterial cell growth incubated for 24 hrs by microtiter dilution method. The class given is functional.

Regarding `CC[C@H](C)[C@H](NC(=O)CN)C(=O)NCC(=O)N[C@@H](C)C(=O)N[C@H](C(=O)N[C@@H](CC(C)C)C(=O)N[C@@H](CCCCN)C(=O)N[C@H](C(=O)N[C@@H](CC(C)C)C(=O)N[C@H](C(=O)N[C@H](C(=O)NCC(=O)N[C@@H](CC(C)C)C(=O)N1CCC[C@H]1C(=O)N[C@@H](C)C(=O)N[C@@H](CC(C)C)C(=O)N[C@H](C(=O)N[C@@H](CO)C(=O)N[C@@H](Cc1c[nH]c2ccccc12)C(=O)N[C@H](C(=O)N[C@@H](CCCCN)C(=O)N[C@@H](CCCNC(=N)N)C(=O)N[C@@H](CCCCN)C(=O)N[C@@H](CCCNC(=N)N)C(=O)N[C@@H](CCC(N)=O)C(=O)N[C@@H](CCC(N)=O)C(N)=O)[C@@H](C)CC)[C@@H](C)CC)[C@@H](C)O)[C@@H](C)O)C(C)C)C(C)C` [MELITTIN], the MIC in assay [1] came to 5.7 µM (≈ 16.2 µg/mL); in assay [2] it was 1.5 µM (≈ 4.27 µg/mL).

The term MIC denotes the least concentration at which growth counts as inhibited.
